The values below are quoted from earlier work in article PMC7830601.

Chains of the proteins cited; added tags and fusions are not shown. Lines headed by an entry give the natural chain unless they say otherwise; changes in a name come on top.
UniProt Q8TDX7: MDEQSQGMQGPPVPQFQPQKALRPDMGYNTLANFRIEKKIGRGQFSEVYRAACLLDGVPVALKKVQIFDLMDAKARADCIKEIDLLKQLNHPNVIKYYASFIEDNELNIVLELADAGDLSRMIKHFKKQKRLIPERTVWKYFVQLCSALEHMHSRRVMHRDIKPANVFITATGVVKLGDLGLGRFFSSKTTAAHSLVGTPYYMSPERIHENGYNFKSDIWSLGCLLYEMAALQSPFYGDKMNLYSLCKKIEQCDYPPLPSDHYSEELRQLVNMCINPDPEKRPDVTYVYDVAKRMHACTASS
UniProt Q96P20, whole entry: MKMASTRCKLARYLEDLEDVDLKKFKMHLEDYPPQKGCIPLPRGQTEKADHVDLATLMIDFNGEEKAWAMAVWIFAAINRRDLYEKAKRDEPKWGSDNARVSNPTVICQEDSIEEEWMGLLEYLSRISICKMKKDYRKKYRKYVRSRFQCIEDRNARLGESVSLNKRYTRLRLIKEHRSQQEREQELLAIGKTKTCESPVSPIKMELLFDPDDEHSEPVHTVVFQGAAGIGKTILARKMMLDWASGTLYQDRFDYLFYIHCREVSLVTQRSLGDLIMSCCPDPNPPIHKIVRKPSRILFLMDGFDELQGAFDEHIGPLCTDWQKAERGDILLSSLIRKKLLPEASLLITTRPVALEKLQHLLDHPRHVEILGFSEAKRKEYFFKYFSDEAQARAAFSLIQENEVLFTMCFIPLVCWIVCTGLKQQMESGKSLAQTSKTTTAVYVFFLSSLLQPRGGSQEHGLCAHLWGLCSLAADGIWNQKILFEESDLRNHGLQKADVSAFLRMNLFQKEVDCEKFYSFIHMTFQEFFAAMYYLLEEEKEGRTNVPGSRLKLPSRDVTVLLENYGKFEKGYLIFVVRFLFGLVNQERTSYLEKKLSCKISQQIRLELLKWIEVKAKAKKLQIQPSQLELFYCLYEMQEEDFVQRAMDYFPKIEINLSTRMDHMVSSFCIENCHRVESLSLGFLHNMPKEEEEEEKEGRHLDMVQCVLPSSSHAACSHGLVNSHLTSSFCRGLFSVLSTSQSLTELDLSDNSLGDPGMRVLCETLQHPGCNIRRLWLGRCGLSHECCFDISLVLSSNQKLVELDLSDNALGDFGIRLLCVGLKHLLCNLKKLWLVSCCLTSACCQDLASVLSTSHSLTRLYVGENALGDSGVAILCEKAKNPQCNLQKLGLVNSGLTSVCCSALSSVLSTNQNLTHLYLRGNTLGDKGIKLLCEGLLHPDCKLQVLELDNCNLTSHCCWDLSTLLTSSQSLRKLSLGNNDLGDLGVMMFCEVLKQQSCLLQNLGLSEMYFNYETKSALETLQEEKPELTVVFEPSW

pKd: −log10 of the molar value.

Usually pKd stands for the negative decadic logarithm of the Kd, by convention in mol/L.

In this series the target is NEK7 (Homo sapiens) (UniProt Q8TDX7).

As to NLRP3 (from UniProt Q96P20), the pKd is 7.10.
